Experimental data from PubChem BioAssay (EPA / NIEHS).
Values joined by “and” are separate entries in the source; they are usually repeats but may differ in a detail not shown here. Equal entries are not always repeated. All entries are inconclusive by the source's own rule. Clear calls are listed elsewhere. How the source made its calls: active means hit-call score of the fitted dose curve at least 0.9, where 1 is the maximum; inconclusive means response in the unintended direction; inactive means score below 0.9.

By UniProt entry, the sequences of proteins in these tests, tags left out. Where a name states a change or a piece, a line headed by the entry shows the natural chain unless it says otherwise.
UniProt Q9HCS2: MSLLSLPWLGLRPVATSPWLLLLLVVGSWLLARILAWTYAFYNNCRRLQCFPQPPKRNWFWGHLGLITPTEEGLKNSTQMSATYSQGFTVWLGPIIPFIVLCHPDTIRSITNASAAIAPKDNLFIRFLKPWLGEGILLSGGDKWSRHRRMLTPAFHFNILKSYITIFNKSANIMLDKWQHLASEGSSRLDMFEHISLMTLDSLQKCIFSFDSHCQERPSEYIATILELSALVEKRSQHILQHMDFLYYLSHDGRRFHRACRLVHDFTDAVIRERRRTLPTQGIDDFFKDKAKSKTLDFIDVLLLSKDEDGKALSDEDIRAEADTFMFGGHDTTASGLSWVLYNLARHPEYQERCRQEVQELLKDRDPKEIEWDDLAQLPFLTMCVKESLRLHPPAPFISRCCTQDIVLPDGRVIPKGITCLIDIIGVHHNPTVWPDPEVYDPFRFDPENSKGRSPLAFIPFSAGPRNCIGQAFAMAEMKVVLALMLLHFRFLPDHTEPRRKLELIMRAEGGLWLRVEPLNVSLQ
UniProt Q9UBN7: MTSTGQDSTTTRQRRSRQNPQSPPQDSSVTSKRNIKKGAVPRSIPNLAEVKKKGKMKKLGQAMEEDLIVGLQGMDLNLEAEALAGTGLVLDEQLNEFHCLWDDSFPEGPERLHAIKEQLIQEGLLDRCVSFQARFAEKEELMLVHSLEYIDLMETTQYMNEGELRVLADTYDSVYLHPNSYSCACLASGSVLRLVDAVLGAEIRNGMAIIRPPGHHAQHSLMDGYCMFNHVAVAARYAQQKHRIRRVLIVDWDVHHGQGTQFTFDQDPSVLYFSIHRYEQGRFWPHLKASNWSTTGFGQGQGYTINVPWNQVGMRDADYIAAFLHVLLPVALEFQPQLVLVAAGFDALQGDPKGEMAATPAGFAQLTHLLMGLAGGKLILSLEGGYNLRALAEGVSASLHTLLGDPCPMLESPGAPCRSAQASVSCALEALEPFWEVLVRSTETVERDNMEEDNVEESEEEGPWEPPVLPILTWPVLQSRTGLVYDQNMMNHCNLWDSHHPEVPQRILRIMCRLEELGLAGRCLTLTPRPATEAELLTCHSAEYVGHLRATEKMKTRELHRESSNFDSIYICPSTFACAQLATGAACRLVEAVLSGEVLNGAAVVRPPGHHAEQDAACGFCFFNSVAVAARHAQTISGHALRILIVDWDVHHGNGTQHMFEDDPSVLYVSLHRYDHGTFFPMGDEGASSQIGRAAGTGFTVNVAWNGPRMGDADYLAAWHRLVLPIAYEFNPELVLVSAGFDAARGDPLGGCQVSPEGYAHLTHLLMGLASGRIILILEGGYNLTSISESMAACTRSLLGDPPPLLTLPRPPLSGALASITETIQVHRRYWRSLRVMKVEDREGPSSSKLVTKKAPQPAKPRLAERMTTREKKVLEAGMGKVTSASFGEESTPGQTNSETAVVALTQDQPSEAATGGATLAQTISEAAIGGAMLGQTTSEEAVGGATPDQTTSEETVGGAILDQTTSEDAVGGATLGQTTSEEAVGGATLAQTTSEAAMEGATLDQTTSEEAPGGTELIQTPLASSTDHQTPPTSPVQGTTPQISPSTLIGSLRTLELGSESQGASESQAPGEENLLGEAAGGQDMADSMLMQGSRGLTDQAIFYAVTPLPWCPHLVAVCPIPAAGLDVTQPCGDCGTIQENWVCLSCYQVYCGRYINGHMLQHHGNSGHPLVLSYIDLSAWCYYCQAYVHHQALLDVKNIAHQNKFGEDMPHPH
UniProt P27361, whole entry, looked up: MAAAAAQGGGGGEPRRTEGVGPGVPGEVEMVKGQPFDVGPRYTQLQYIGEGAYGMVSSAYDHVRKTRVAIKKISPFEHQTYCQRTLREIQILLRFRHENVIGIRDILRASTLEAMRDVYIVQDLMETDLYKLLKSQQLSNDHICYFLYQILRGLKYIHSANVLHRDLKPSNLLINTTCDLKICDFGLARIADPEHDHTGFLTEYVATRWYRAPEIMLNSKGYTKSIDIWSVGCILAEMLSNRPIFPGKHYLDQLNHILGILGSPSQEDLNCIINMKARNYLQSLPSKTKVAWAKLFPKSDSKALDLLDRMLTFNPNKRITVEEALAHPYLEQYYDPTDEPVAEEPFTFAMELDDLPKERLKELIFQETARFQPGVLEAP
UniProt P14780: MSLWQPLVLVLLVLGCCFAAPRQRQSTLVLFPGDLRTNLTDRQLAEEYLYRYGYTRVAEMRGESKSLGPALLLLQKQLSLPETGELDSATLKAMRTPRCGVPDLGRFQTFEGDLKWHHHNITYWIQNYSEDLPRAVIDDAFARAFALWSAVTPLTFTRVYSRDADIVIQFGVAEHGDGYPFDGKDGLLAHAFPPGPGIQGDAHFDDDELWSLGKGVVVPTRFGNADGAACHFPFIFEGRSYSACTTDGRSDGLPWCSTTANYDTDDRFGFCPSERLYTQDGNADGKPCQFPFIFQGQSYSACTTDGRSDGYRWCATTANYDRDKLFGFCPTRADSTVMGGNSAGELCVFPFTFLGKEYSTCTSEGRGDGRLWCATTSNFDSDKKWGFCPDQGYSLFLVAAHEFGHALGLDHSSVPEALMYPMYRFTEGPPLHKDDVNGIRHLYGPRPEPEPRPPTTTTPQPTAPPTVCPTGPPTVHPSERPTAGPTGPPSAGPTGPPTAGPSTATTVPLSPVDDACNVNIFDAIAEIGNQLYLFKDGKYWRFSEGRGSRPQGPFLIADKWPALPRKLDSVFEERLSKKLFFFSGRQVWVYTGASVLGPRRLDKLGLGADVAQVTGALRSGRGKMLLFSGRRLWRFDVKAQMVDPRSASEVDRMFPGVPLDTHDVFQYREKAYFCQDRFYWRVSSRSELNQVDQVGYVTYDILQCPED
UniProt P42336, whole entry, looked up: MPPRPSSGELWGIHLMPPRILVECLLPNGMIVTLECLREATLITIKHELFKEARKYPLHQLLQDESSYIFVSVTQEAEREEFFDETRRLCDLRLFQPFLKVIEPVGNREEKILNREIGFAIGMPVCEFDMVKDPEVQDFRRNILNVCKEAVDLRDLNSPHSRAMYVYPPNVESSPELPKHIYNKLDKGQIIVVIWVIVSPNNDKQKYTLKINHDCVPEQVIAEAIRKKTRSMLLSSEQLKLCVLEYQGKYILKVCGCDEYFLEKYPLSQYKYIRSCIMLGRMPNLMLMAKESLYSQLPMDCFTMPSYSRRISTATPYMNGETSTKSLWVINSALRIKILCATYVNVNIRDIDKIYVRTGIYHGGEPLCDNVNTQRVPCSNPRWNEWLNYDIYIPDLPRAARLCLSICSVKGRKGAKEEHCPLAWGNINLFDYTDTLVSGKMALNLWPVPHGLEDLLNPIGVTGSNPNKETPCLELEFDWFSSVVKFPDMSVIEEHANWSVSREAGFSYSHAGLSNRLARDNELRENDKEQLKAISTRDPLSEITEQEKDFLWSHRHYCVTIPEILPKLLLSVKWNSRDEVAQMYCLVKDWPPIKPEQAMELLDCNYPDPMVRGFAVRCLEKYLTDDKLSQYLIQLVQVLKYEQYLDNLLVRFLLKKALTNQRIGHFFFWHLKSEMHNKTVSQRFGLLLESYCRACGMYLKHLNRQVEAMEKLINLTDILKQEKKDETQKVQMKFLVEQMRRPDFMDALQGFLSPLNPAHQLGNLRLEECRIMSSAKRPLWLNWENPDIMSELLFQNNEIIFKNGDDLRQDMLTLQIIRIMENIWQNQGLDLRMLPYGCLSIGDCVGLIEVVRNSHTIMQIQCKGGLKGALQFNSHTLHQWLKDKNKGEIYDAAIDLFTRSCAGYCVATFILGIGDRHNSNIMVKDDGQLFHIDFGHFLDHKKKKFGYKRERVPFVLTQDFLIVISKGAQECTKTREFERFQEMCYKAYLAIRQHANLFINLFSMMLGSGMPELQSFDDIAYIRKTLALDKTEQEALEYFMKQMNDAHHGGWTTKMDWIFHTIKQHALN
UniProt P17706: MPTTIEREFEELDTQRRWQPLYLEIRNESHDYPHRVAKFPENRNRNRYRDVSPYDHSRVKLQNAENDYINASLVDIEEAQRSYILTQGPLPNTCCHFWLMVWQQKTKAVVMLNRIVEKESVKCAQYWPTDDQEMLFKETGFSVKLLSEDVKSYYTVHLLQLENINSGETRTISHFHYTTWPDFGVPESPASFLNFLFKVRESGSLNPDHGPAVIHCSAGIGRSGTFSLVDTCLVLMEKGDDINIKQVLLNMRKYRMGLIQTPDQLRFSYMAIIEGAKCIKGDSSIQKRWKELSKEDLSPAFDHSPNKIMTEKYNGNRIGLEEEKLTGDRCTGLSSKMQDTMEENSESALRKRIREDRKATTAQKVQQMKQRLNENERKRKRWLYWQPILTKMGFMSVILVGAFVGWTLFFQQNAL
UniProt P49146, whole entry, looked up: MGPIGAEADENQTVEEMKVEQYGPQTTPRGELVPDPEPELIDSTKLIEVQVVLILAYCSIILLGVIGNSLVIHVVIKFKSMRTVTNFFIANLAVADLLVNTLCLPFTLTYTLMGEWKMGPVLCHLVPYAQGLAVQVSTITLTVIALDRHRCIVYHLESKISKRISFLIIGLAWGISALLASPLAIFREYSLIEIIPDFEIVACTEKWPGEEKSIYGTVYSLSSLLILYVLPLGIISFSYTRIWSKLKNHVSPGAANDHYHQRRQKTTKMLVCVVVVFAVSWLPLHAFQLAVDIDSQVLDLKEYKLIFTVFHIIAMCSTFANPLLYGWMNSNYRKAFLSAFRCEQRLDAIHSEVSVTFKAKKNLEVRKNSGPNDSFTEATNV
UniProt Q15822: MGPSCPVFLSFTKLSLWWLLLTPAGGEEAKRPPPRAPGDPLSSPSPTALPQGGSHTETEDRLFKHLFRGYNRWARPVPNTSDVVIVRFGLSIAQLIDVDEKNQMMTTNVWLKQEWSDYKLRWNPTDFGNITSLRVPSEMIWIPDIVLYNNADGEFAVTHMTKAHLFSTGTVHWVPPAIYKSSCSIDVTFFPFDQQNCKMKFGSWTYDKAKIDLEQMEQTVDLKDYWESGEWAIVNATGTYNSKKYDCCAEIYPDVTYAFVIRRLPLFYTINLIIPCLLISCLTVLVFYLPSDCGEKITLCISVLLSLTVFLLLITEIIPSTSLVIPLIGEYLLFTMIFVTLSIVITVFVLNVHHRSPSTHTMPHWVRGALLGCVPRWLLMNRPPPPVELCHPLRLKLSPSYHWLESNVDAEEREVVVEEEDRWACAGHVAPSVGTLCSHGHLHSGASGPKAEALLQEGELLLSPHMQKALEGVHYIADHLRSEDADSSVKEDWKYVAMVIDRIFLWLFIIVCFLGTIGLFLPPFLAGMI
UniProt P70536: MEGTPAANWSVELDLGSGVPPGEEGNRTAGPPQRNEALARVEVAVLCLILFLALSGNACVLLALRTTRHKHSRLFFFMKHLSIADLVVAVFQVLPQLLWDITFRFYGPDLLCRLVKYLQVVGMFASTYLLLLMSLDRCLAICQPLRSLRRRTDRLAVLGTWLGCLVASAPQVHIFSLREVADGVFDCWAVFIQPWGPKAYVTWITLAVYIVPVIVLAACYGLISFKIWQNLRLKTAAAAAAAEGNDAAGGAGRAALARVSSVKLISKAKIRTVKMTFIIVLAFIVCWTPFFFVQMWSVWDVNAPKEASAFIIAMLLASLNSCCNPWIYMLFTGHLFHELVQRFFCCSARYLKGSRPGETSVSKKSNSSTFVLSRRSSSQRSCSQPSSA
UniProt P10827: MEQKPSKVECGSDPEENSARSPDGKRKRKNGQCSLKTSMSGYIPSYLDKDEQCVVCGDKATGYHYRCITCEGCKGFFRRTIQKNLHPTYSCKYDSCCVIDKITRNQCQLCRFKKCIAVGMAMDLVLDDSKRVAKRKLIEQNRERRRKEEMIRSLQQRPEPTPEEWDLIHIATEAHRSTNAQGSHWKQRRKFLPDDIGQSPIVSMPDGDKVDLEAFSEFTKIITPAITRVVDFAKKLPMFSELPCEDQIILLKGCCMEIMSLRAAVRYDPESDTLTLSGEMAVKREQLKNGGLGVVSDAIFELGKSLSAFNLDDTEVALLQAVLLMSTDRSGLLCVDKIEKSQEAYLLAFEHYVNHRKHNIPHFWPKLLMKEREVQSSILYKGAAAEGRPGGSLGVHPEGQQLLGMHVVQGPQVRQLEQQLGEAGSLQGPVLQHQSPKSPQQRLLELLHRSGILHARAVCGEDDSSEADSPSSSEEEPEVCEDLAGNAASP
UniProt P19793: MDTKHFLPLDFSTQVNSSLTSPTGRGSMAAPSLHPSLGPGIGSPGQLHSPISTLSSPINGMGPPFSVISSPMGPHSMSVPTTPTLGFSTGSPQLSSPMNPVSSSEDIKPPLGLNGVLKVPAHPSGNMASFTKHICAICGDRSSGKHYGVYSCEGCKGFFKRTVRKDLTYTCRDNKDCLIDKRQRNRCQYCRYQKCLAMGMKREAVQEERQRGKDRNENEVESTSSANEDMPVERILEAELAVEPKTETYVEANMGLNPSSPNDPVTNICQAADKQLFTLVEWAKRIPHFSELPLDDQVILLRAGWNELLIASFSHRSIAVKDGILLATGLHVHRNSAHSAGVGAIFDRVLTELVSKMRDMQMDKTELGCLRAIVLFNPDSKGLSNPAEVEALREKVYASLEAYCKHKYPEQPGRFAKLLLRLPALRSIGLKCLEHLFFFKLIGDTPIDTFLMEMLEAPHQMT

Key:
[1] = target: Steroid hormone receptor ERR1 (Homo sapiens) (UniProt P11474); assay: ATG_ERRa_TRANS: Attagene TRANS-FACTORIAL HepG2 Assay for human Estrogen-Related Receptor alpha (ERRa) (AID 2282971); conditions: HepG2 Attagene TRANS reporter, ERRa transactivation
Summary of the method: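 HepG2 cells transiently transfected with GAL4-UAS reporter units and chimeric NR-Gal4 constructs; after 24 hour compound incubation, reporter mRNA quantified by RT-PCR, fluorescent labelling and capillary electrophoresis, gain of signal versus DMSO.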

[2] = ATG_M_19_TRANS: Attagene TRANS-FACTORIAL HepG2 Assay for M19 Transcription Factor (Internal Marker) (AID 2282974); conditions: HepG2 Attagene TRANS-FACTORIAL M19 internal marker reporter
Summary of the method: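 Background-control readout: after 24 h chemical exposure of transfected HepG2 carrying GAL4-driven reporter units, RNA was reverse-transcribed, amplified, fluorescently labeled and sized by capillary electrophoresis; gain-of-signal fit against DMSO.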

[3] = target: Hepatocyte nuclear factor 4-alpha (Homo sapiens) (UniProt P41235); assay: ATG_HNF4a_TRANS: Attagene TRANS-FACTORIAL HepG2 Assay for human Hepatocyte Nuclear Factor 4 alpha (HNF4a) (AID 2282982); conditions: HepG2 HNF4a transactivation reporter, mRNA readout
Summary of the method: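 Transient MRTU transfection of HepG2, 24 h dosing. Readout: reporter mRNA via RT-PCR + capillary electrophoresis, fluorescence; activity fit upward relative to DMSO control.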

[4] = target: human CYP19A1, CYP19A1 (gene 1588) (UniProt P11511); assay: NVS_ADME_hCYP19A1: NovaScreen (NVS) CYP450-related Enzyme Activity (ADME) Assay for human CYP19A1 (AID 2283098);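 further: potency for inhibitors seen as loss of fluorescent enzyme signal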
Summary of the method: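 Fluorescence intensity read-out; activity taken as signal loss relative to acetonitrile vehicle. Extracted enzyme, specific substrate, no cells, 0.5 h exposure. Duplicate single-point screen at 10 uM, then concentration–response follow-up for actives.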

[5] = target: human CYP4F12, CYP4F12 (gene 66002) (UniProt Q9HCS2); assay: NVS_ADME_hCYP4F12: NovaScreen (NVS) CYP450-related Enzyme Activity (ADME) Assay for human CYP4F12 (AID 2283111)
Summary of the method: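 Recombinant enzyme with a fluorescent substrate, signal read at 0.5 h post-dose; activity loss analysed relative to acetonitrile. Compounds first run in duplicate at 10 uM, with follow-up concentration-response testing of actives.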

[6] = target: Protein deacetylase HDAC6 (Homo sapiens) (UniProt Q9UBN7); assay: NVS_ENZ_hHDAC6: NovaScreen (NVS) Enzymatic Assay for human Histone Deacetylase 6 (HDAC6) (AID 2283164)
Summary of the method: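 Concentration-response runs up to 50 uM followed a duplicate 25 uM single-point screen. Deacetylase activity of recombinant human HDAC6 read by fluorescence after 1 h, with mobility-shift separation of substrate and product; DMSO as baseline.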

[7] = target: Mitogen-activated protein kinase 3 (Homo sapiens) (UniProt P27361); assay: NVS_ENZ_hMAPK3: NovaScreen (NVS) Enzymatic Assay for human Mitogen-Activated Protein Kinase 3 (MAPK 3) (AID 2283177)
Summary of the method: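 Chemicals were first tested in duplicate at 25 uM, with hits re-run as concentration series (max 50 uM). Recombinant enzyme activity, measured 1 h post-dose in a cell-free format, was read by fluorescence/mobility shift relative to DMSO.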

[8] = target: human Matrix Metalloproteinase-9 (MMP9), MMP9 (gene 4318) (UniProt P14780); assay: NVS_ENZ_hMMP9: NovaScreen (NVS) Enzymatic Assay for human Matrix Metalloproteinase-9 (MMP9) (AID 2283190);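 further: cell-free recombinant MMP9 protease activity read by fluorescent substrate signal; active means inhibition seen as loss of fluorescence signal versus DMSO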
Summary of the method: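 Inhibition was scored as loss of fluorescence signal against DMSO controls. The recombinant protease was exposed to chemicals for 1 hour before reading; initial testing used 25 uM in duplicate.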

[9] = target: human Phosphoinositide 3-kinase alpha (PI3Ka), PIK3CA (gene 5290) (UniProt P42336); assay: NVS_ENZ_hPI3Ka: NovaScreen (NVS) Enzymatic Assay for human Phosphoinositide 3-kinase alpha (PI3Ka) (AID 2283196)
Summary of the method: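 Chemicals were first screened at 25 uM in duplicate, then hits were run as concentration series up to 50 uM. Enzyme activity was measured by fluorescence after mobility-shift separation, with loss of signal relative to DMSO taken as activity.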

[10] = target: human Protein Tyrosine Phosphatase Non-receptor Type 2 (PTPN2), PTPN2 (gene 5771) (UniProt P17706); assay: NVS_ENZ_hPTPN2: NovaScreen (NVS) Enzymatic Assay for human Protein Tyrosine Phosphatase Non-receptor Type 2 (PTPN2) (AID 2283207)
Summary of the method: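 Activity measured as fluorescence after mobility-shift separation of substrate and product, 1 h after compound. Duplicate single-point 25 uM primary testing, concentration series for actives; inhibition scored as signal loss relative to DMSO baseline.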

[11] = target: human Raf-1 Proto-Oncogene, serine/threonine Kinase (RAF1), RAF1 (gene 5894) (UniProt P04049); assay: NVS_ENZ_hRAF1: NovaScreen (NVS) Enzymatic Assay for human Raf-1 Proto-Oncogene, serine/threonine Kinase (RAF1) (AID 2283216)
Summary of the method: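 Single-point screening at 25 uM (duplicate), followed by singleton concentration-response to 50 uM maximum for chemicals exceeding threshold. Enzyme activity from fluorescent substrate-product mobility-shift separation after 1 h, relative to DMSO.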

[12] = target: human Tyrosine Protein Kinase Receptor Tie-2 (Tie2), TEK (gene 7010) (UniProt Q02763); assay: NVS_ENZ_hTie2: NovaScreen (NVS) Enzymatic Assay for human Tyrosine Protein Kinase Receptor Tie-2 (Tie2) (AID 2283225)
Summary of the method: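 Substrate and product were separated by mobility shift and detected by fluorescence after a 1-hour reaction with recombinant Tie2. Chemicals passing a 25 uM single-point screen were titrated to a maximum of 50 uM. Results were normalized to DMSO baseline.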

[13] = target: Type-1 angiotensin II receptor (Homo sapiens) (UniProt P30556); assay: NVS_GPCR_hAT1: NovaScreen (NVS) G Protein-Coupled Receptor Assay for human Angiotensin II receptor type 1 (AT1) (AID 2283263)
Summary of the method: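 Hits from a 25 uM duplicate screen (threshold e.g. 30% inhibition) were run in concentration-response with 50 uM top concentration. Displacement of specific radioligand from KAN-TS membrane preparations measured after 3 h by filter scintillation, DMSO as baseline.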

[14] = target: human Endothelin Receptor Type B (ETB), EDNRB (gene 1910) (UniProt P24530); assay: NVS_GPCR_hETB: NovaScreen (NVS) G Protein-Coupled Receptor Assay for human Endothelin Receptor Type B (ETB) (AID 2283267)
Summary of the method: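 Filter-based scintillation readout of radioligand displacement, 4 h, using membranes from human astrocytoma cells. Actives from a 25 uM duplicate screen were retested in concentration-response (top 50 uM) relative to DMSO baseline.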

[15] = target: Neuropeptide Y receptor type 2 (Homo sapiens) (UniProt P49146); assay: NVS_GPCR_hNPY2: NovaScreen (NVS) G Protein-Coupled Receptor Assay for human Neuropeptide Receptor Y2 (NPY2) (AID 2283277)
Summary of the method: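 Chemicals were first tested in duplicate at 25 uM, then actives in singleton concentration series to 50 uM. Tracer binding to SK-N-MC-derived protein measured cell-free after 1 h via filter scintillation; signal loss relative to DMSO.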

[16] = target: rat Adrenergic Receptor, Beta (Adrb), Non-selective Binding, Adrb1 (gene 24925) (UniProt P18090); assay: NVS_GPCR_rAdrb_NonSelective: NovaScreen (NVS) G Protein-Coupled Receptor Assay for rat Adrenergic Receptor, Beta (Adrb), Non-selective Binding (AID 2283298)
Summary of the method: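 Rat cortical membranes incubated 1 h with beta-adrenergic radioligand and test chemical; bound ligand measured by filtration and scintillation counting. Screen at 25 uM duplicate, then concentration series with 50 uM maximum; loss of signal versus DMSO.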

[17] = target: rat Neurotensin Receptor (NTS), Ntsr1 (gene 366274) (UniProt P20789); assay: NVS_GPCR_rNTS: NovaScreen (NVS) G Protein-Coupled Receptor Assay for rat Neurotensin Receptor (NTS) (AID 2283308)
Summary of the method: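 Single-point duplicates at 25 uM, then concentration series to 50 uM max for hits, measured radioligand displacement on rat forebrain membrane preparations. Bound label counted by filtration scintillation at 1 h; signal loss relative to DMSO fitted.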

[18] = target: rat Neurokinin-3 Receptor (NK3), Tacr3 (gene 24808) (UniProt P16177); assay: NVS_GPCR_rNK3: NovaScreen (NVS) G Protein-Coupled Receptor Assay for rat Neurokinin-3 Receptor (NK3) (AID 2283310)
Summary of the method: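 Filter-based radioligand displacement on rat cortex membrane preparations, read by scintillation 2 h post-dose. Chemicals first tested in duplicate at 25 uM; actives followed up in concentration series with a 50 uM maximum.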

[19] = target: human Neonicotinoid receptor (NNR), CHRNA2 (gene 1135) (UniProt Q15822); assay: NVS_LGIC_hNNR_NBungSens: NovaScreen (NVS) Ligand-Gated Ion Channel Assay for human Neonicotinoid receptor (NNR) (AID 2283313)
Summary of the method: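 Compounds first screened in duplicate at 25 uM, then actives re-tested in single-replicate dose series up to 50 uM. Binding measured as displacement of specific radioligand from neuroblastoma membrane receptors after 2 h, scintillation read on filters.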

[20] = target: human Serotonin, 5-Hydroxytryptamine Receptor 3 (5HT3), HTR3A (gene 3359) (UniProt P46098); assay: NVS_LGIC_h5HT3: NovaScreen (NVS) Ligand-Gated Ion Channel Assay for human Serotonin, 5-Hydroxytryptamine Receptor 3 (5HT3) (AID 2283325)
Summary of the method: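 Initially tested at 25 uM in duplicate, then up to 50 uM in concentration-response for actives, compounds competed with a radioligand for HEK293-derived human 5-HT3 receptor. Bound counts were measured by filtration and scintillation at 1 h; loss of signal versus DMSO.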

[21] = target: rat Oxytocin Receptor (OXT), Oxtr (gene 25342) (UniProt P70536); assay: NVS_GPCR_rOXT: NovaScreen (NVS) G Protein-Coupled Receptor Assay for rat Oxytocin Receptor (OXT) (AID 2283330)
Summary of the method: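 Binding to rat uterine membrane receptor was followed by scintillation counting of filter-trapped radioligand after 1 h. A 25 uM duplicate single-point screen preceded concentration series with a top of 50 uM. Signal loss was analysed relative to DMSO.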

[22] = target: rat Gamma-Aminobutyric Acid Type A Receptor BDZ, alpha 6 site (GABARa6), Gabra6 (gene 29708) (UniProt P30191); assay: NVS_LGIC_rGABARa6: NovaScreen (NVS) Ligand-Gated Ion Channel Assay for rat Gamma-Aminobutyric Acid Type A Receptor BDZ, alpha 6 site (GABARa6) (AID 2283339)
Summary of the method: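 Actives from a 25 uM duplicate screen were retested in concentration series (max 50 uM). Specific radioligand displacement from rat cerebellar membranes was counted by filter-based scintillation at 1 h; DMSO served as baseline.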

[23] = target: human Thyroid Receptor Alpha (TRa), THRA (gene 7067) (UniProt P10827); assay: NVS_NR_hTRa_Antagonist: NovaScreen (NVS) Nuclear Receptor Binding Assay for human Thyroid Receptor Alpha Antagonism (TRa) (AID 2283362)
Summary of the method: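 Cell-free AlphaLISA chemiluminescent binding read 1 h after dosing, antagonist mode; signal loss versus DMSO baseline. Primary screen in duplicate at 25 uM, then concentration series for actives.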

[24] = target: Retinoic acid receptor RXR-alpha (Homo sapiens) (UniProt P19793); assay: OT_NURR1_NURR1RXRa_0480: Odyssey Thera (OT) 8-hour HEK293T Protein Complementation Assay for Nurr1/retinoid X receptor (RXR) (AID 2283385)
Summary of the method: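 Read-out: fluorescence from protein-fragment complementation between Nurr1 and RXRα in human HEK293T cells, 8 h after dosing. DMSO served as negative control; increased signal counted as activity.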

[25] = target: Retinoic acid receptor RXR-alpha (Homo sapiens) (UniProt P19793); assay: OT_NURR1_NURR1RXRa_1440: Odyssey Thera (OT) 24-hour HEK293T Protein Complementation Assay for Nurr1/retinoid X receptor (RXR) (AID 2283386)
Summary of the method: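 Fluorescence PCA read-out; HEK293T; 24 h post-dose; bait/prey fused to reporter fragments; gain-of-signal fit vs DMSO negative control.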

[26] = Tanguay_ZF_120hpf_AXIS_legacy: (Legacy) Oregon State University Tanguay Lab 120 Hour Post-fertilization zebrafish Assay for Body Axis Malformation (AID 2283635);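 further: potency for an increased fraction of larvae scored with body axis malformation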
Summary of the method: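 Dechorionated wild-type Tropical 5D zebrafish embryos, one per well, statically exposed from 6 hpf to 120 hpf at 28C in 0.64% DMSO final. Body axis malformation scored present/absent by brightfield microscopy at 120 hpf; dead embryos excluded.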

[27] = Tanguay_ZF_120hpf_JAW_legacy: (Legacy) Oregon State University Tanguay Lab 120 Hour Post-fertilization zebrafish Assay for Jaw Malformation (AID 2283638);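 further: active means more embryos with jaw malformation than DMSO controls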
Summary of the method: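 Dechorionated Tropical 5D wild-type zebrafish embryos, one per well, exposed statically from 6 hpf to 120 hpf at 28C in 0.64% DMSO. Jaw malformation was scored by brightfield microscopy as present or absent. It was not scored in dead embryos.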

Measured: AC50

CC(C)OP(=S)(OC(C)C)SCCNS(=O)(=O)c1ccccc1
inconclusive: [1] 0.00866 µM | [2] 49.8 nM and 3.59 µM | [3] 0.0131 µM | [4] 0.0536 µM | [5] 462 nM and 559 nM | [6] 0.0771 µM | [7] 12.3 µM | [8] 6.18 µM and 6.32 µM | [9] 25 µM | [10] 183 nM and 25 µM | [11] 25 µM | [12] 25 µM and 392 nM | [13] 25 µM | [14] 25 µM | [15] 25 µM | [16] 3.53 µM | [17] 25 µM and 458 nM | [18] 1.89 µM and 25 µM and 258 nM | [19] 207 nM and 1.72 µM | [20] 0.0741 µM | [21] 6.25 µM | [22] 0.281 µM | [23] 0.0888 µM | [24] 89.5 µM and 50 µM | [25] 41 µM and 30.2 µM | [26] 193 µM | [27] 0.577 µM
